These are literature values, as cited in patent US12077568B2, “Engineered active single-polypeptide chain insulin analogs” (University of Houston System, priority 2018, dated 2024).

For this data set the following is noted: cited from earlier work.

insulin: the “time to degradation after initial release into circulation” value (endogenously produced by beta cells) was “within about one hour”. Under “free insulin in circulation, in vivo”, the half-life in circulation is 4 to 6 min.
